Patent US10227357B2, “Compounds and methods for kinase modulation, and indications therefor” (Plexxikon Inc., priority 2012, dated 2019)

Protein sequences, listed by entry. Tags and fused reporters are not part of them. Lines headed by an entry give the natural chain unless they say otherwise; changes in a name come on top. Chains listed by the source or under a name are the forms on record and can include a tag or linker. Residues count along the entry.
UniProt P10721, 26-976 limits assumed: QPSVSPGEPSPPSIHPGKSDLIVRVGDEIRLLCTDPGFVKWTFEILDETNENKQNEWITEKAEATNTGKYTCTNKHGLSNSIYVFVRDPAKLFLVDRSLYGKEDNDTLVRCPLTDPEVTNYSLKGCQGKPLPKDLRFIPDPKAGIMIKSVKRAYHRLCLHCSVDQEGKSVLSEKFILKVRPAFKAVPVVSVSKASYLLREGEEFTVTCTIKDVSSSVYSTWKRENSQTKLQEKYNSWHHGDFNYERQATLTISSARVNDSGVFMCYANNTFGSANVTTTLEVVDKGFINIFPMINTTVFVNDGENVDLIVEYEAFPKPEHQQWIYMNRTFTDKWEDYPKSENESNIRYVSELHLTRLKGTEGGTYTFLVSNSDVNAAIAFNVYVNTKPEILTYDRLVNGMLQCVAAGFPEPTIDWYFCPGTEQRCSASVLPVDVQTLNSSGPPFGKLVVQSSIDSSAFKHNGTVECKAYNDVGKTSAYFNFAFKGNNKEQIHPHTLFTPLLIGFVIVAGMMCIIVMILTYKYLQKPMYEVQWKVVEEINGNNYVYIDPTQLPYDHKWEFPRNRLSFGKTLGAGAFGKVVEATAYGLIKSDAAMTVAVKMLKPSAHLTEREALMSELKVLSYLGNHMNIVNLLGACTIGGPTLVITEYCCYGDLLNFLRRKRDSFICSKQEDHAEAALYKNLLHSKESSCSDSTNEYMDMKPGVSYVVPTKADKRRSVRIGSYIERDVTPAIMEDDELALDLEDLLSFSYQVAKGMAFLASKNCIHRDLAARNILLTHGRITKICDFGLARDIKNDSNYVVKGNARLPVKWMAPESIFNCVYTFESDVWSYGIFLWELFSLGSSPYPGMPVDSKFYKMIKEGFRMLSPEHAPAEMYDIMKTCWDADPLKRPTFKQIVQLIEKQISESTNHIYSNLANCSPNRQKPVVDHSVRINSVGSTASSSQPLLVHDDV
UniProt P10721, with tags, fused parts or gaps D816V/DEL694-753 limits assumed: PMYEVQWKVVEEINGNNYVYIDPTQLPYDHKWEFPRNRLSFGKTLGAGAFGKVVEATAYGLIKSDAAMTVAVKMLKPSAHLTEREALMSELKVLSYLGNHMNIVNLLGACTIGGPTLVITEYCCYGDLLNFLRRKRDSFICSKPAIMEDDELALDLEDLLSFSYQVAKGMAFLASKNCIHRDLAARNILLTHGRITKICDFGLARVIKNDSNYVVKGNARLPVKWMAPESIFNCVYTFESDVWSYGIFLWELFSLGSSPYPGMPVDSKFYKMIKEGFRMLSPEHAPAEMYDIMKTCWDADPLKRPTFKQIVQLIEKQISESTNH

Experiments:
c-kit kinase = c-kit kinase (Homo sapiens, UniProt P10721); assay: c-Kit biochemical assay, AlphaScreen, 10 μM ATP; conditions: read-out: Biochemical activity (IC50 μM) Kit; c-kit biochemical inhibitory activity
c-kit mutant D816V = c-kit mutant D816V (Homo sapiens, UniProt P10721, D816V/DEL694-753); assay: c-Kit mutant D816V biochemical assay, AlphaScreen; conditions: read-out: Biochemical activity (IC50 μM) Kit D816V; c-kit D816V biochemical inhibitory activity

Cc1ccccc1Cc1c[nH]c2ncnc(N3CCN(C(=O)NCc4ccc(F)cc4)CC3)c12
IC50 (c-kit kinase): 10 to 200 µM
IC50 (c-kit mutant D816V): 10 to 200 µM
